3 compounds from ChEMBL document CHEMBL1153876, “Synthesis of some N-substituted nitroimidazole derivatives as potential antioxidant and antifungal agents” (2009) can be followed below.

This assay can be described thus: Antioxidant activity assessed as inhibition of Fe2+-induced lipid peroxidation after 15 to 60 mins by TBARS assay relative to control. Further details: concentration or dose not given beside the values. It is filed as functional. The method in brief: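 Substrate: egg yolk lipoprotein suspension, made by homogenising yolk with an equal volume of phosphate buffer pH 7.4. Compounds were added as 10^-3 mol/mL solution, with 0.7% FeSO4·7H2O to start non-enzymatic peroxidation, at 37 °C. Controls were Fe only and a blank with neither Fe nor compound; tocopheryl acetate was the reference. The supernatant was heated with acidic thiobarbituric acid at 95 °C for 1 h, extracted into n-butanol–pyridine 15:1, and read by optical density.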

As for `O=[N+]([O-])c1ncn(CC(O)CCl)c1[N+](=O)[O-]` (stereo not drawn), the Activity came to 56.5%.
In the case of `O=C(CCl)Cn1cnc([N+](=O)[O-])c1[N+](=O)[O-]` it was 63.7%; in that of `CC(=O)Cn1c(C)nc([N+](=O)[O-])c1[N+](=O)[O-]`, 13.1%.
